This passage reports inhibition results from ChEMBL document CHEMBL4152209, “Synthesis of 7β-hydroxy-8-ketone opioid derivatives with antagonist activity at mu- and delta-opioid receptors” (Eur J Med Chem, 2018).

Sequences of proteins named here, by UniProt entry; tags and fusion partners are left off. A change or cut given only in a name is not applied to a line headed by its entry.
UniProt P41145: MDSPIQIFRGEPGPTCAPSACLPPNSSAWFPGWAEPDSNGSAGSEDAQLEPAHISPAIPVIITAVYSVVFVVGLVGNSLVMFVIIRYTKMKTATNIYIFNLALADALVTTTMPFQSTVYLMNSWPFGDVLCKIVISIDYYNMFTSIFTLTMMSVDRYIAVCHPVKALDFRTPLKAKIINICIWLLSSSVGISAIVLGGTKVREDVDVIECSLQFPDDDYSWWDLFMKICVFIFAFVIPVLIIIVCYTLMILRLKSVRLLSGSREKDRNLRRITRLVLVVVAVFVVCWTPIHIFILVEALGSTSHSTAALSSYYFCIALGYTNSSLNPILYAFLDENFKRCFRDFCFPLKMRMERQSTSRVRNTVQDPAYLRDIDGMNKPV

As usually defined, the inhibition is the share of the control response that was lost under treatment. Low values mean a weak effect, high ones a strong effect.

SMILES strings stand for the structures.

The target of experiment [1] is Kappa-type opioid receptor (Homo sapiens) (UniProt P41145). The settings on record: at 1 µM.
The target is the same in experiment [2]. The settings on record: at 10 µM.

For the compound `CN(C(=O)Cc1ccc(Cl)c(Cl)c1)C1CCCCC1N1CCCC1` (configuration not stated), the inhibition in experiment [1] worked out at 91%; in experiment [2], 95%.
